Source: patent publication US9180183B2, “Phospholipid drug analogs” (Telormedix SA, priority 2010, dated 2015)
“And” between values parts separate entries of the source, which are not always exact repeats. Equal entries are not always repeated.

Legend:
[1] = system: Cutaneous Squamous Cell Carcinoma (SCC) cell lines SCL-I, SCL-II, SCC-12, SCC-13; assay: Proapoptotic and cytotoxic effects on cutaneous SCC cell lines (real-time cell analysis, microscopy); format: cell-based, human; conditions: SCC cells; time of treatment 3d; 120 microM
Procedure: SCC cells are grown under standard conditions (10% FBS).
Time and dose dependency of effects on total cell numbers have been investigated by real-time cell analysis, which is based on continuous monitoring of electric conductance in microtiter wells (E-plates, Roche), which corresponds to the cell numbers. […] For these assays 4 cell lines should be used to obtain a representative overview on the effects on SCC cells.

[2] = Serum exposure after intravesical chronic treatment in mouse; conditions: intravesical 0.1%, LLOQ 2.5 ng/ml
Procedure: Serum samples were taken at time points: day 0, 2 hours, day 1, 24 hours, and day 6, 2 hours.
Samples were evaporated and re-suspended in 70 microliters of acetonitrile/methanol 1:1.

Q: For `CC(C)Cn1cnc2c(N)nc3ccccc3c21` [Imiquimod, reference compound], which “morphological changes (microscopy)” value [1] is on record?
A: The value was “cell detachment, morphological changes and inhibition of proliferation”.

Q: And the “Imiquimod levels in serum, Mean ± S.D.” value ([2]; Day 0, 2 hours)?
A: The value was 6.2 ± 0.8 ng/mL.

Q: And the “Imiquimod levels in serum, individual mice” value ([2]; Day 0, 2 hours)?
A: The value was 6.4 ng/mL and 6.8 ng/mL and 5.3 ng/mL.

Q: What about the “Imiquimod levels in serum, individual mice” value ([2]; Day 1, 24 hours) of the same compound?
A: Its value is “<LLOQ”.

Q: And the “Imiquimod levels in serum, Mean ± S.D.” value ([2]; Day 6, 2 hours)?
A: Its value is 8.9 ± 5.6 ng/mL.

Q: What about the “Imiquimod levels in serum, individual mice” value ([2]; Day 6, 2 hours) of the same compound?
A: The value was 2.8 ng/mL and 8.1 ng/mL and 16.3 ng/mL and 8.7 ng/mL.
